Measured values reported in patent US7153869B2, “Substituted amino acids as erythropoietin mimetics” (priority 1998, dated 2006).
Like-named read-outs stand apart in the source and are kept apart here.

Molecular target: T1, EBP-Ig (N-terminal 225 amino acids of the human EPO receptor joined to an Ig heavy chain) (Homo sapiens, UniProt P19235)
T1 construct: Ig heavy chain (fusion partner); made in house; host or cells: NSO cells (secreted into conditioned media)
T1 sequence (P19235 25-250 limits assumed): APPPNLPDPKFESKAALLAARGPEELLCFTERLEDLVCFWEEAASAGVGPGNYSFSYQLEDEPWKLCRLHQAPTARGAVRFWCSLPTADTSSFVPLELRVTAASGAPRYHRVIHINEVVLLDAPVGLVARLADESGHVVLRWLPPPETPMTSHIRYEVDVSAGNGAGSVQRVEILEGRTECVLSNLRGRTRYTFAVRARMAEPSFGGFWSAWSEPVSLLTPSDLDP
Test: Inhibition of [125I]EPO binding to immobilized EBP-Ig (EPO binding protein-Ig), scintillation Flash plate competition assay
Excerpt: The interaction of biotin and streptavidin is frequently employed to capture and effectively immobilize reagents useful in assay protocols and has been employed here as a simple method to capture and immobilize EBP-Ig. EBP-Ig is initially randomly modified with an amine reactive derivative of biotin to produce biotinylated-EBP-Ig. Use of streptavidin coated plates allows the capture of the biotinylated EBP-Ig on the surface of a scintillant impregnated coated well (Flash plates, NEN-DuPont). […] The amount of light produced was quantified to estimate the amount of ligand binding. The specific assay format was suitable for the multi-well plate capacity of a Packard TopCount Microplate Scintillation counter.
Biotinylated EBP-Ig was prepared as follows. EBP-Ig (3 mL, OD280 2.9) was exchanged into 50 mM sodium bicarbonate, pH 8.5 using a Centriprep 10 ultrafiltration device. The final volume of the exchanged protein was 1.2 mL (OD280 2.6, representing about 2 mg total protein). 10 μL of a 4 mg/ml solution of NHS-LC-Biotin (Pierce) was added and the reaction mixture placed on ice in the dark for two hours. Unreacted biotin was removed by exchange of the reaction buffer into PBS in a Centriprep 10 device and the protein reagent aliquoted and stored at −70° C.
All wells were adjusted to a final DMSO concentration of 5%. […] After all additions were made, the plate was covered with an adhesive top seal and placed in the dark at room temperature overnight. The next day all liquid was aspirated from the wells to limit analyte dependent quench of the signal, and the plates were counted on a Packard TOPCOUNT Microplate Scintillation Counter. […] Corrected total binding (CTB) was calculated as: TB−NSB=CTB. […] Table 1 lists the average % inhibition, and if determined the IC50 and IC30 values for compounds of Formula I, where the compound numbers refer to the compounds in the tables accompanying the preparative examples.

SMILES: O=C(O)CC(C(=O)O)N(C/C=C/c1cccc(Oc2ccccc2)c1)C/C=C/c1cccc(Oc2ccccc2)c1 (stereo not shown) [compound 108]
- IC50: 36 µM

SMILES: COC(=O)C(CCCCN)N(Cc1ccc(OCc2ccccc2)cc1)Cc1ccc(OCc2ccccc2)cc1 (stereo not shown) [compound 110]
- IC50: 10 µM

SMILES: O=C(O)CC(C(=O)O)N(CC=Cc1cccc(Oc2ccccc2)c1)CC=Cc1cccc(Oc2ccccc2)c1 (stereo not shown) [cpd 107, N,N-bis(3-Phenoxycinnamyl)Asp-OH]
- IC50 (read-out: IC50, μM (Inhibition of EPO binding to EBP-Ig), 0.5 nM [125I]EPO, concentration reducing corrected total binding to 50%): 42 µM

SMILES: O=C(O)CCC(C(=O)NCCOCCOCCNC(=O)C(CCC(=O)O)N(Cc1ccc(OCc2ccccc2)cc1)Cc1ccc(OCc2ccccc2)cc1)N(Cc1ccc(OCc2ccccc2)cc1)Cc1ccc(OCc2ccccc2)cc1 (stereo not shown) [cpd 246, [N,N-bis(4-Benzyloxybenzyl)GluNHCH2CH2OCH2]2]
- IC50: 75 µM
